Experimental data: patent US4900538A, “Composition for increasing potency of adriamycin or daunomycin and reducing toxicities thereof” (Suntory Limited, priority 1982, dated 1990)

What was measured:
[1] = test system: L1210 cells; test: In vivo carcinostatic activity against transplanted L1210 cells (ILS, survivors); conditions: i.p.
[2] = test system: strains used (Salmonella typhimurium, Escherichia coli); test: Growth / survival of the strains used in the mutagenicity tests; format: cell-based; conditions: explains apparent reduction of mutagenicity at high levels

COc1cccc2c1C(=O)c1c(O)c3c(c(O)c1C2=O)C[C@@](O)(C(=O)CO)C[C@@H]3O[C@H]1C[C@H](N)[C@H](O)[C@H](C)O1 [adriamycin]
ILS (index of life spread to the control group) ([1]; adriamycin 1 mg/kg/day × 5, sodium hydrogensulfite 0): > 194% | ILS (index of life spread to the control group) ([1]; adriamycin 3 mg/kg/day × 5, sodium hydrogensulfite 0): 71% | Cellular toxicity [2]: have cellular toxicity
